Key:
[1] = λ≧395 nm; for Yield of photoproduct (Bergman cyclized) on photolysis: 12 hours
[2] = Bergman cyclization studied by differential scanning calorimetry (DSC); conditions: heating rate 10° C. per minute
[3] = 90° C. for 8 hours, with CHD

## 1,2,-bis(pyridine-3-oxy)oct-4-ene-2,6-diyne [Compound 1]
[1]; 100 mM, anaerobic, 120 hours, 0° C., two-fold excess CHD or isopropanol
  Photochemical reactivity: no reactivity
[2]
  Exothermic peak (Bergman cyclization) by DSC: 258 °C

## (1,2-bis(pyridine-3-oxy)oct-4-ene-2,6-diyne)copper(I) [Compound 2]
[3]
  Thermal cyclization in solution: complete conversion to the Bergman cyclized product
[1]
  Yield of photoproduct (Bergman cyclized) on photolysis: 50%
[2]
  Exothermic peak (Bergman cyclization) by DSC: 166 °C

## (1,2-bis(pyridine-3-oxy)oct-4-ene-2,6-diyne)copper(II) [Compound 3]
[1]
  Yield of photoproduct (Bergman cyclized) on photolysis: 48%
[2]
  Exothermic peak (Bergman cyclization) by DSC: 135 °C
